Results: ChEMBL document CHEMBL6153172, “MALT1 Inhibitors and Degraders: Strategies for NF-κB-Driven Malignancies” (J Med Chem, 2025)

Target: T1, Mucosa-associated lymphoid tissue lymphoma translocation protein 1 (Homo sapiens, UniProt Q9UDY8)
T1 sequence (Q9UDY8 whole entry): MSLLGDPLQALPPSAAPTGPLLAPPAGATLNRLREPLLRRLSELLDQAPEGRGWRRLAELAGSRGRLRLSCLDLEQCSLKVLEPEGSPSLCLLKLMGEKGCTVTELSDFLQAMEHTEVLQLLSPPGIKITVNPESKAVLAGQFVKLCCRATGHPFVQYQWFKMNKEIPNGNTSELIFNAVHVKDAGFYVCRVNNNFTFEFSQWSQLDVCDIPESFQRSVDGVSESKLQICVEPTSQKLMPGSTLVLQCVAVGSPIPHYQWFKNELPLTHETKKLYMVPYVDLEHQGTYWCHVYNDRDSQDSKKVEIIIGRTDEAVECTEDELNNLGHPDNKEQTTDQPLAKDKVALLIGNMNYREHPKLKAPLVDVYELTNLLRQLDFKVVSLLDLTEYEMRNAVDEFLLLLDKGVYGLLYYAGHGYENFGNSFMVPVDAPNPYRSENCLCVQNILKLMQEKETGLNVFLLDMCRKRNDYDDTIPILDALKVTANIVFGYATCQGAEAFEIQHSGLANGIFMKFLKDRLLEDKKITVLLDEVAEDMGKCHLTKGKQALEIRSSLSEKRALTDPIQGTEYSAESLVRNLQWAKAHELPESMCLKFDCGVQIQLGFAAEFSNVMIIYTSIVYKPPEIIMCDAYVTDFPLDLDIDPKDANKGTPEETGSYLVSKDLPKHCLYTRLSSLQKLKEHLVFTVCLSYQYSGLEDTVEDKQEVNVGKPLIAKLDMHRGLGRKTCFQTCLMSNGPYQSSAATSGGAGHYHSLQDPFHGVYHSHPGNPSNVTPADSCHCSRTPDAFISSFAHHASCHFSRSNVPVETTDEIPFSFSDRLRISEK
Test: biochemical

- IC50: 5 nM
SMILES: CO[C@@H](C)[C@@H](OC)c1c(NC(=O)Nc2cnc(-n3nccn3)c(Cl)c2)cnc2cc(Cl)nn12
